In one data set the target is OX1R (Homo sapiens, UniProt O43613). In words: OX1R assay of WO2013/187466 (fluorescence measurement of intracellular Ca2+ changes). The data set is classed as cell-based. Particulars: from IC50 values as described in WO2013/187466.
The next data set addresses T1, human MDR1 P-gp (Homo sapiens, UniProt P08183).
T1 construct: expressed in transfected cells; host or cells: MDCK (MDCK-MDR1)
In words: Assay D: efflux in MDCK cells transfected with the human MDR1 gene. Particulars: MDCK-MDR1 monolayers, pH 7.4, 37°C, read-out: Data as determined in Assay D: MDCK efflux ratio (BA/AB). It is filed as in vitro ADME. As for the experimental part: The MDCK assay provides information on the potential of a compound to pass the blood brain barrier. Permeability measurements across polarized, confluent MDCK-MDR1 cell monolayers grown on permeable filter supports are used as an in vitro absorption model: apparent permeability coefficients (PE) of the compounds across the MDCK-MDR1 cell monolayers are measured (pH 7.4, 37°C) in apical-to-basal (AB) and basal-to-apical (BA) transport direction. The AB permeability (PEAB) represents drug absorption from the blood into the brain and the BA permeability (PEBA) drug efflux from the brain back into the blood via both, passive permeability as well as active transport mechanisms mediated by efflux and uptake transporters that are expressed on the MDCK-MDR1 cells, predominantly by the overexpressed human MDR1 P-gp. Identical or similar permeabilities in both transport directions indicate passive permeation, vectorial permeability points to additional active transport mechanisms. Higher PEBA than PEAB (PEBA/PEAB > 5) indicates the involvement of active efflux mediated by MDR1 P-gp, which might compromises the goal to achieve sufficient brain exposure. […]
Apparent permeability coefficients (PE) of the compounds across the MDCK-MDR1 cell monolayers are measured (pH 7.4, 37°C) in apical-to-basal (AB) and basal-to-apical (BA) transport direction. […]

Protein sequences, listed by entry. Tags and fused reporters are not part of them.
UniProt O43613, whole entry, species assumed: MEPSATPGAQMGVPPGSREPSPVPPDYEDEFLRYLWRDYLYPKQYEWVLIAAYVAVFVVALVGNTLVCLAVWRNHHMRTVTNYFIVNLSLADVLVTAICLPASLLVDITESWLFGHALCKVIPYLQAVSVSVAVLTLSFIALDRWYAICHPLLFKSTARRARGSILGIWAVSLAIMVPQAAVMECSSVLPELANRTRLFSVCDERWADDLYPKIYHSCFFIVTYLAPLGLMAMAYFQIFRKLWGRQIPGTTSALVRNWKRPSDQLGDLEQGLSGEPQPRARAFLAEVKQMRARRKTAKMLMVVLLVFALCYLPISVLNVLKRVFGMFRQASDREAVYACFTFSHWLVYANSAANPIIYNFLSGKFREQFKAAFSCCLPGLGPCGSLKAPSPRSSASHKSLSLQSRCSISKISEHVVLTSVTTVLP
UniProt P08183, whole entry: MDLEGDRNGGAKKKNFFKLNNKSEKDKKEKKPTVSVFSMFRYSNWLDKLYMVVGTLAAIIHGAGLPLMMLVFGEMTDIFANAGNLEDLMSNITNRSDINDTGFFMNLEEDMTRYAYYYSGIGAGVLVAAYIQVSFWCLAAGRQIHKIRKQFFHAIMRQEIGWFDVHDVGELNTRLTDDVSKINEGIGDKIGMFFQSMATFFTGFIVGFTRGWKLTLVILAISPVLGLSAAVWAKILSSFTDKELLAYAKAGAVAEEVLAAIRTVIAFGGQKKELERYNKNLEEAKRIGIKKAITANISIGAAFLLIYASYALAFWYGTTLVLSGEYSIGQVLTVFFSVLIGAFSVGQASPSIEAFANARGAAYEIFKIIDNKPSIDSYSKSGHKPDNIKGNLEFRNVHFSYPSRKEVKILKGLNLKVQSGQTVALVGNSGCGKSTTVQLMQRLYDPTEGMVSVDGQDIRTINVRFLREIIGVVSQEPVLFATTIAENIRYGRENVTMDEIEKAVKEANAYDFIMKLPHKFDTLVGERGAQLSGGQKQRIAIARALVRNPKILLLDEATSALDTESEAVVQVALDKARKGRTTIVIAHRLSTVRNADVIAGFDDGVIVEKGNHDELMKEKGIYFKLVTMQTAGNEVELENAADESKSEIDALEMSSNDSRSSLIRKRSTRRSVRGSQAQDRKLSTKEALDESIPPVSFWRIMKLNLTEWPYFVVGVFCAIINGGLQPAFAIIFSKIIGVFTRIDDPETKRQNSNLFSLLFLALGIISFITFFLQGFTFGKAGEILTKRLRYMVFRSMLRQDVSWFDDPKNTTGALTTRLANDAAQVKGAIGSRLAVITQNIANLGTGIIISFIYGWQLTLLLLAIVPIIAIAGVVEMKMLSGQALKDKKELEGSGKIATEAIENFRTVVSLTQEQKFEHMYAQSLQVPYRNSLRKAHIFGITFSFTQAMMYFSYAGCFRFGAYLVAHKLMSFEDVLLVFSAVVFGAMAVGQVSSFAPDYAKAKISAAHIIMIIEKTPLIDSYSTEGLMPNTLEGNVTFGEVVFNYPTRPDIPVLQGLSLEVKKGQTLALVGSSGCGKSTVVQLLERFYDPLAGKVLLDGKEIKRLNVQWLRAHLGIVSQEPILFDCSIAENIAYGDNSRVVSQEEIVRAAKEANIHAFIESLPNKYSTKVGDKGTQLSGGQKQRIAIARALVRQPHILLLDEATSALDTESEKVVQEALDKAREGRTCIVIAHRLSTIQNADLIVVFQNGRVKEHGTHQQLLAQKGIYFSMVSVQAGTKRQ
UniProt O43614, whole entry: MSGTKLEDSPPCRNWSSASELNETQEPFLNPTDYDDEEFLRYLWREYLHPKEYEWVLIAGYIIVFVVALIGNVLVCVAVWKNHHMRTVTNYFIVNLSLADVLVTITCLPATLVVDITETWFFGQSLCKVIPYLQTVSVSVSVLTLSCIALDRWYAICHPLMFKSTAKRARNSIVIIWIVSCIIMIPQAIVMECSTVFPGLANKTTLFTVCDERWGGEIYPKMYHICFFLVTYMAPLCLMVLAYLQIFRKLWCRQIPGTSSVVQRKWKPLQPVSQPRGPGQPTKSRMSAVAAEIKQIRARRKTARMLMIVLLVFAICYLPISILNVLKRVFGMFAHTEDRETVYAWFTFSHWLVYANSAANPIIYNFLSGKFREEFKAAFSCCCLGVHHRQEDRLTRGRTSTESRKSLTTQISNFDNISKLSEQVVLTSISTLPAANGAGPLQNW

The target in the next data set is OX2R (Homo sapiens, UniProt O43614). Particulars: as described in WO2013/187466; agonist 3 nM modified orexin A; cited from earlier work.

Molecules are shown by their SMILES.

As for `CCN(C(=O)c1cc(F)ccc1-c1ncccn1)[C@@H](C)Cn1nnc(-c2ccc(F)cc2)n1` [Example 70 in WO2013/187466, reference compound], the “OX2R IC50/OX1R IC50” value on OX1R is 411. For the same molecule, at human MDR1 P-gp, the efflux ratio was 0.8.

What is called IC50 is the midpoint of a concentration-inhibition curve. Regarding `CCN(C(=O)c1nc(C)ccc1-c1ncccn1)[C@@H](C)Cn1nnc(-c2ccc(F)cc2)n1` [Example 69 in WO2013/187466, reference compound], on OX2R, the IC50 is 1.9 µM.

The values are drawn from patent EP3442964B1, “NOVEL N-[(PYRIMIDINYLAMINO)PROPANYL]-AND N [(PYRAZINYLAMINO)PROPANYL]ARYLCARBOXAMIDES” (Boehringer Ingelheim International GmbH, priority 2016, dated 2017).
